# Measured values as given in ChEMBL document CHEMBL3877269, “Structure-activity relationships and optimization of acyclic acylphloroglucinol analogues as novel antimicrobial agents” (Eur J Med Chem, 2017).
# System: Staphylococcus aureus
# Experiment: Antibacterial activity against methicillin-resistant Staphylococcus aureus JCSC 2172 after 8 to 12 hrs by resazurin dye based microdilution method
# Assay type: functional
smiles,measurement,value
CC[C@H](C)[C@H](NC(=O)CN)C(=O)NCC(=O)N[C@@H](C)C(=O)N[C@H](C(=O)N[C@@H](CC(C)C)C(=O)N[C@@H](CCCCN)C(=O)N[C@H](C(=O)N[C@@H](CC(C)C)C(=O)N[C@H](C(=O)N[C@H](C(=O)NCC(=O)N[C@@H](CC(C)C)C(=O)N1CCC[C@H]1C(=O)N[C@@H](C)C(=O)N[C@@H](CC(C)C)C(=O)N[C@H](C(=O)N[C@@H](CO)C(=O)N[C@@H](Cc1c[nH]c2ccccc12)C(=O)N[C@H](C(=O)N[C@@H](CCCCN)C(=O)N[C@@H](CCCNC(=N)N)C(=O)N[C@@H](CCCCN)C(=O)N[C@@H](CCCNC(=N)N)C(=O)N[C@@H](CCC(N)=O)C(=O)N[C@@H](CCC(N)=O)C(N)=O)[C@@H](C)CC)[C@@H](C)CC)[C@@H](C)O)[C@@H](C)O)C(C)C)C(C)C [MELITTIN],MIC,1.25 µg/mL
